Patent US20120010168A1, “Unique Dual-Action Therapeutics” (published 2012)

Protein sequences, listed by entry. Tags and fused reporters are not part of them. Residues count along the entry.
UniProt O42275, 24-633 limits assumed: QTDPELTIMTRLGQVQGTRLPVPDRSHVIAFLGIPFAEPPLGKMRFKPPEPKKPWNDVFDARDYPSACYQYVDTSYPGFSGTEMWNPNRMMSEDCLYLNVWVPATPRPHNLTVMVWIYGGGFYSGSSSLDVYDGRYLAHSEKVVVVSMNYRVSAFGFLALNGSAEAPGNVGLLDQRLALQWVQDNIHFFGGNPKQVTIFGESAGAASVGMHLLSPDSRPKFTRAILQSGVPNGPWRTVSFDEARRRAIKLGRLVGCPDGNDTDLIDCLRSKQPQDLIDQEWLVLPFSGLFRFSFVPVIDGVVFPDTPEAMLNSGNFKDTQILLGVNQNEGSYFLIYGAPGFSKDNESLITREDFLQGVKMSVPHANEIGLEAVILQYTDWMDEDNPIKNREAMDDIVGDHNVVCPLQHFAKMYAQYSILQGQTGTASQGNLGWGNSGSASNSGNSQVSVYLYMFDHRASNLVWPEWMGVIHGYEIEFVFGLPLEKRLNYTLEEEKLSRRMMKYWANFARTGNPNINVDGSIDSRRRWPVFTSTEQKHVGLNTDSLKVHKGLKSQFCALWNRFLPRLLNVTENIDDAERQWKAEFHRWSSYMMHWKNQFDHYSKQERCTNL

What was measured:
[1] = biological target: Acetyl cholinesterase (Type V-S from Electrophorus electricus) (Electrophorus electricus, UniProt O42275); assay: Acetylcholinesterase inactivation and reactivation (Sephadex G-25, Ellman); details: 30 min incubation with 52 μM inhibitor, then chromatography over Sephadex gel
[2] = Plasma hydrolysis studies; details: 37° C., human plasma diluted to 80% with PBS (pH 7.4)
AChE = AChE (Electrophorus electricus, UniProt O42275); assay: Kinetic inhibition studies (Lineweaver-Burk); details: Lineweaver-Burk plot; substrate 1000 to 50 μM, inhibitor 1 to 100 μM
[3] = Chemical hydrolysis studies (aqueous potassium carbonate, HPLC); details: 37° C., aqueous potassium carbonate (10 eq), 20% DMSO, after 2 hr
[4] = Aqueous hydrolysis studies in PBS pH 7.4; details: 37° C., methanol (up to 50%) co-solvent

Molecule | % Enzyme Activity (AChE activity recovery after inactivation) [1] [%] | t1/2 (hr) in diluted human plasma [2] [h] | type of inhibition of AChE (AChE) | products released on chemical hydrolysis [3] | t1/2 (hr) in PBS (pH 7.4) buffer [4] [hr]
COc1ccc2cc([C@H](C)C(=O)OCCC(C)(C)C)ccc2c1 | 113 |  |  |  | 
COc1ccc2cc([C@H](C)C(=O)OCc3ccc(OC(=O)OCCC(C)(C)C)cc3)ccc2c1 | 95 | 2.23 | reversible inhibition | release of both the NSAID Naproxen and the 4-hydroxybenzylalcohol | 
CC(C)Cc1ccc(C(C)C(=O)OCc2ccc(OC(=O)OCCC(C)(C)C)cc2)cc1 (centres unmarked) | 109 | 3.33 |  |  | 20.4
[o-(2,6-dichloroanilino)phenyl]acetyl 3,3-dimethylbutyl carbonate | 95 | 5.93 |  |  | 6.95
CC(C)Cc1ccc(C(C)C(=O)OCCC(C)(C)C)cc1 (centres unmarked) |  |  | reversible inhibition |  | 
CC(C)(C)CCOC(=O)Cc1ccccc1Nc1c(Cl)cccc1Cl | 95 |  |  |  | 105
